Target: human 5HT transporters [(h)SERT] (Homo sapiens, UniProt P31645)
Test: Inhibition of [3H]serotonin uptake in HEK293 cells expressing hSERT
Details: read-out: monoamine uptake inhibition IC50 [3H]5HT

Sequences of proteins named here, by UniProt entry; tags and fusion partners are left off.
UniProt P31645, whole entry: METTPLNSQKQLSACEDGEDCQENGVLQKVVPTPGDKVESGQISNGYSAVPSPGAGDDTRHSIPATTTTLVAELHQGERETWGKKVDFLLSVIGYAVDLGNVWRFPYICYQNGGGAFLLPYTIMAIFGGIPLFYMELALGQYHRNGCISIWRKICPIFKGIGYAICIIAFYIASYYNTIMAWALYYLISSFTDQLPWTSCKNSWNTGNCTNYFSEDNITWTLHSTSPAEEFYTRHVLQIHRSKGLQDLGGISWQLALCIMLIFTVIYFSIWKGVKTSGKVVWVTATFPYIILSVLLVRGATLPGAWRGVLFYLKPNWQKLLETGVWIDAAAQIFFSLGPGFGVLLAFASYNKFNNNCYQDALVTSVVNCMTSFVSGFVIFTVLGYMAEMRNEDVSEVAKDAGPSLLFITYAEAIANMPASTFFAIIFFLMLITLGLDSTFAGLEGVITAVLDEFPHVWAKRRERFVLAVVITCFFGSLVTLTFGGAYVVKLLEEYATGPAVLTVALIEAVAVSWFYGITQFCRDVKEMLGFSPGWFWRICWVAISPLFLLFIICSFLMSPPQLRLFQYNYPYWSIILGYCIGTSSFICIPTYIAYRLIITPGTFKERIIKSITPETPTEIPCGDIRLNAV

SMILES	IC50
C[C@@H]1NC(C)(C)CO[C@@]1(O)c1cccc(Cl)c1 [(2S,3S)-4a, (2S,3S)-2-(3-Chlorophenyl)-3,5,5-trimethylmorpholin-2-ol]	> 10 µM
C[C@H]1NC(C)(C)CO[C@]1(O)c1cccc(Cl)c1 [(2R,3R)-4a, (2R,3R)-2-(3-Chlorophenyl)-3,5,5-trimethylmorpholin-2-ol]	> 10 µM

Reference: article PMC2895766 (2010)
